In patent US8278309B2, “Synthetic mimetics of host defense and uses thereof” (priority 2008, dated 2012):

Assay: Hemolysis assay using human erythrocytes
Format: cell-based
Settings: pH 7.4, 1 hour at 37° C., read-out: Cytotoxicity EC50 RBCs

CC[C@H](C)[C@H](NC(=O)CN)C(=O)NCC(=O)N[C@@H](C)C(=O)N[C@H](C(=O)N[C@@H](CC(C)C)C(=O)N[C@@H](CCCCN)C(=O)N[C@H](C(=O)N[C@@H](CC(C)C)C(=O)N[C@H](C(=O)N[C@H](C(=O)NCC(=O)N[C@@H](CC(C)C)C(=O)N1CCC[C@H]1C(=O)N[C@@H](C)C(=O)N[C@@H](CC(C)C)C(=O)N[C@H](C(=O)N[C@@H](CO)C(=O)N[C@@H](Cc1c[nH]c2ccccc12)C(=O)N[C@H](C(=O)N[C@@H](CCCCN)C(=O)N[C@@H](CCCNC(=N)N)C(=O)N[C@@H](CCCCN)C(=O)N[C@@H](CCCNC(=N)N)C(=O)N[C@@H](CCC(N)=O)C(=O)N[C@@H](CCC(N)=O)C(N)=O)[C@@H](C)CC)[C@@H](C)CC)[C@@H](C)O)[C@@H](C)O)C(C)C)C(C)C [melittin, reference compound]
HC50 at 1 h: 2 µg/mL
